# According to publication PMC4556614 (PLoS ONE, 2015):
# By UniProt entry, the sequences of proteins in these tests, tags left out. Where a name states a change or a piece, a line headed by the entry shows the natural chain unless it says otherwise.
# UniProt O15244: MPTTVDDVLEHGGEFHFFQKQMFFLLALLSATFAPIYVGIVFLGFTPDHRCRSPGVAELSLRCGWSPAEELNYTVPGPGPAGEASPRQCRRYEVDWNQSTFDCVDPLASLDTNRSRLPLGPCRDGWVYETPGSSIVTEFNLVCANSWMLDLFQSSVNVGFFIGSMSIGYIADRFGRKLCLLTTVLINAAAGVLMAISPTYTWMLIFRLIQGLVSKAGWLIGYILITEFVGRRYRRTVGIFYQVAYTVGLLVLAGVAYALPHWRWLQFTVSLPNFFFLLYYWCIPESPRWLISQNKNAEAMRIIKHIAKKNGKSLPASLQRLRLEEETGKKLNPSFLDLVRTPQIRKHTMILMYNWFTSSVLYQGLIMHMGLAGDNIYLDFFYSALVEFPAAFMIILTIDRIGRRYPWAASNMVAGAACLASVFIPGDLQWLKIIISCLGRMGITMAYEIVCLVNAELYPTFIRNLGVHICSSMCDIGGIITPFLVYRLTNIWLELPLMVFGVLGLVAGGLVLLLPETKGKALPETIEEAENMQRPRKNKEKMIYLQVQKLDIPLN
# Target: OCT2 (Homo sapiens, UniProt O15244)
# Experiment: Inhibition of OCT2-mediated [14C]metformin uptake in HEK-OCT2 cells
Structure (SMILES),"inhibition at 3 min, 200 µM (human, pH 7.3, % Inhibition of OCT2-dependent MF uptake at 200 µM (mean ± SEM), test drug 200 µM, metformin 1000 μM, 3 min, net uptake HEK-OCT2 minus HEK-VC) [%]","Effect on OCT2-mediated uptake of metformin and/or MPP+ (in words) (Fig 2, S1 and S2 Figs, 20 and 200 μM)"
Cc1nnc2n1-c1ccc(Cl)cc1C(c1ccccc1)=NC2 [Alprazolam],88.3 ± 3.6,
NS(=O)(=O)c1cc2c(cc1Cl)NCNS2(=O)=O [Hydrochlorothiazide],,stimulated
